## Antibody variant affinities, Ab-95 light chain, assay 2

The target is the same throughout: PDVDLGDISGINAS, from the HR2 region of SARS-CoV-2 spike.

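Library AAYL52 holds single substitutions and randomly drawn double and triple substitutions in the CDRs. In AlphaSeq, yeast of one mating type display the scFv and yeast of the other type display the target. Binding brings cells together so that they mate, and sequencing counts the barcode pairs among the diploids. A regression on co-assayed BCL2-family reference pairs converts the normalised counts of each replicate to an apparent Kd. There are three technical replicates.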

Ab-95 is the parent antibody, in scFv form: VH, then a 15-residue (Gly4Ser)3 linker, then VL. The heavy chain is unchanged in all variants.
VH: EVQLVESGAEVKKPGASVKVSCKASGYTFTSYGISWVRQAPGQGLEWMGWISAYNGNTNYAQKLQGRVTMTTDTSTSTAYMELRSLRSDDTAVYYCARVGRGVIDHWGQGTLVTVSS
VL: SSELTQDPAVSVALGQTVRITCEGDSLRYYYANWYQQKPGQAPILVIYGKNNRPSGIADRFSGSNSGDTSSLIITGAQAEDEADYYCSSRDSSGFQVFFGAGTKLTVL

Substitutions are numbered in sequence along the VL above, starting at 1 (not Kabat). All variants listed here change V97 of the VL, counted from its first residue. Each Kd is an estimate from the mating assay, the geometric mean of the replicates in which the pair was seen; lower is stronger. An entry "nd" has no value in the source: the pair was not observed among the diploids in any replicate. This suggests poor binding but is not conclusive. The list is sorted by this average, lowest first, undetected variants last. For reference, the parent read 200 nM as the reference entry and 180 nM as a member of this library.

changes,apparent Kd,seen in
Y29T Y31Q V97W,18 nM,3 of 3
Y29D F95K V97I,22 nM,3 of 3
G24W Y31H V97C,22 nM,3 of 3
Y31E V97I F98L,35 nM,3 of 3
D25I F95K V97G,51 nM,3 of 3
Y30G V97Y F98D,74 nM,3 of 3
S26D F95V V97T,88 nM,3 of 3
S88W R90Q V97H,110 nM,3 of 3
K50E V97W,230 nM,3 of 3
Y31K Q96D V97K,240 nM,2 of 3
P54Q S93T V97L,270 nM,3 of 3
R90E G94W V97W,590 nM,3 of 3
Y29D S92Q V97D,1.0 µM,1 of 3
P54M S92V V97R,1.1 µM,3 of 3
N52S R90W V97K,1.3 µM,2 of 3
S88Q G94F V97D,1.4 µM,3 of 3
E23D D25L V97T,1.4 µM,3 of 3
Y31M N33E V97N,1.5 µM,2 of 3
A32T N51D V97E,1.5 µM,3 of 3
D91E S92K V97Y,1.6 µM,2 of 3
D91S V97G F98C,1.6 µM,2 of 3
S92A V97I F98T,1.7 µM,3 of 3
E23L V97H,1.9 µM,2 of 3
D91G F95D V97N,2.0 µM,3 of 3
N33Q V97R,2.3 µM,2 of 3
R28S V97R F98M,3.4 µM,1 of 3
E23I P54T V97T,3.6 µM,1 of 3
G49P F95C V97K,4.6 µM,2 of 3
P54R V97M,4.9 µM,1 of 3
Y29G S89C V97E,5.2 µM,2 of 3
R53K S88G V97K,5.8 µM,2 of 3
G24Y R28D V97S,6.4 µM,3 of 3
S89N V97A,6.6 µM,3 of 3
G49H V97Y,7.3 µM,1 of 3
Y31W S89T V97D,7.3 µM,2 of 3
Y29V Q96D V97E,8.2 µM,3 of 3
L27Q K50E V97F,8.3 µM,2 of 3
G49W R53N V97D,10 µM,2 of 3
E23F V97C,12 µM,3 of 3
Y29R R53S V97L,12 µM,3 of 3
S89P Q96K V97P,15 µM,2 of 3
G49N R53W V97I,18 µM,1 of 3
D25P N51W V97N,33 µM,3 of 3
Y29R V97M F98D,58 µM,1 of 3
A32T R53Q V97C,76 µM,1 of 3
R53W S92M V97F,76 µM,1 of 3
N51H P54Y V97L,140 µM,1 of 3
S26W Y29W V97F,180 µM,1 of 3
S55C S88W V97N,nd,0 of 3
A32D N33F V97W,nd,0 of 3
Y31K G49C V97S,nd,0 of 3
L27F S88F V97Q,nd,0 of 3
D25F D91R V97R,nd,0 of 3
R28T P54F V97T,nd,0 of 3
S55R V97P,nd,0 of 3
Y29I S93P V97K,nd,0 of 3

The closing 6 entries, repeated:

{"changes": "Y31K G49C V97S", "apparent Kd": "nd", "seen in": "0 of 3"}
{"changes": "L27F S88F V97Q", "apparent Kd": "nd", "seen in": "0 of 3"}
{"changes": "D25F D91R V97R", "apparent Kd": "nd", "seen in": "0 of 3"}
{"changes": "R28T P54F V97T", "apparent Kd": "nd", "seen in": "0 of 3"}
{"changes": "S55R V97P", "apparent Kd": "nd", "seen in": "0 of 3"}
{"changes": "Y29I S93P V97K", "apparent Kd": "nd", "seen in": "0 of 3"}

Background: pairings of library AAYL52 with three empty control strains gave a value in 28% of cases (median 8.2 µM, 5th percentile 800 nM). Values in that range, when seen in few replicates, are hard to tell from nonspecific mating.

Values reported by Engelhart et al. 2022, doi:10.1038/s41597-022-01779-4 (FLAb copy).